# scFv variants of Ab-14 (light chain) against a SARS-CoV-2 spike peptide

Data: MIT Lincoln Laboratory AlphaSeq set, Li et al. 2023, doi:10.1038/s41467-023-39022-2, as distributed in FLAb.

Target: peptide PDVDLGDISGINAS, taken from heptad repeat 2 (HR2) of SARS-CoV-2 spike.

Parent: Ab-14, a human scFv built as VH, a (GGGGS)3 linker, VL. Only the CDRs of the light chain vary.
VH: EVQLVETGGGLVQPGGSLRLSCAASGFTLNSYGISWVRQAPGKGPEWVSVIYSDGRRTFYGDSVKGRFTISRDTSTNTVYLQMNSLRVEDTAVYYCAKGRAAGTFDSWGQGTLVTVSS
VL: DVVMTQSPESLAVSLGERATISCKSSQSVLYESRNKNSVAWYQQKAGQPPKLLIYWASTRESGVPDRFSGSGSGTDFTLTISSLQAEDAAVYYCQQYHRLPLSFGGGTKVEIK

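This is the validation round: designs drawn from the data on random variants, tested in the same kind of assay. Their group label is 14L_En_Gibbs (En: ensemble of fine-tuned language models; Gibbs: Gibbs sampling). The assay is AlphaSeq: two haploid yeast populations carry antibody and antigen on their surface. Mating (16 h, 30 °C) was followed by selection of diploids and sequencing of their barcodes. The ratio of observed to expected reads was calibrated, replicate by replicate, on BCL2-family standards whose Kd was known from biolayer interferometry. There are six technical replicates.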

The parent's light chain CDRs are KSSQSVLYESRNKNSVA, WASTRES, QQYHRLPLS; each variant's own CDRs replace them letter for letter.
Affinities are written as log10 Kd with Kd in nM; a lower number is a better binder.
Replicates are averaged; those with no signal do not enter the mean.
"nd" marks a missing value. The strain was present, yet no cells mated with the target were sequenced in that replicate, which points to weak or no binding.

| # | CDR-L1 | CDR-L2 | CDR-L3 | log10 Kd (nM) by replicate | mean, log10 nM | signal with controls |
|---|---|---|---|---|---|---|
| 1 | NMQMQDDLMLNAKQNVA | GVDMRLE | QQYFRLPLL | 1.33 / 0.04 / 0.63 / 0.50 / 0.11 / 0.56 | 0.53 | 0/18 |
| 2 | KVQYQLAPSEAHTNPVA | DASVVCA | QQYDRLPLG | 2.08 / 1.70 / nd / 1.97 / 1.79 / 2.36 | 1.98 | 1/18 (1.93) |
| 3 | YVSIQAAQDRNQQSSVA | GVDYREK | QQYYHLPLS | 0.47 / 0.63 / 0.90 / 0.49 / 0.60 / 0.96 | 0.67 | 0/18 |
| 4 | SLAFTLHFGQSGGSNVA | EVQMREQ | QQYFRLPLG | nd / nd / 2.27 / nd / nd / nd | 2.27 | 0/18 |
| 5 | KIQPDLQQSFASKNNVA | DRQLSAE | QQYNRLPLV | 0.60 / nd / -0.04 / 1.03 / 2.62 / 0.42 | 0.92 | 0/18 |
| 6 | KLVGDMQEDKNPSENIA | EESSVSQ | QQYSRLPLE | nd / nd / nd / nd / nd / nd | nd | 0/18 |
| 7 | HIDTEWNHGANRDNNIA | EAQTVAA | QDYFRLPII | nd / 2.25 / 1.95 / nd / 1.59 / nd | 1.93 | 1/18 (3.13) |
| 8 | FLEYASDQTGLQGNAIA | QVNLKEN | QQYMRLPLA | nd / 2.44 / 0.98 / 1.09 / 0.81 / nd | 1.33 | 0/18 |
| 9 | QLDWYNTYATASASNIA | DGAQRAN | QQYMRLPLM | -0.08 / -0.06 / -0.20 / -0.24 / -0.18 / -0.04 | -0.13 | 1/18 (2.13) |
| 10 | KFQQESNNMNDIQNSVA | DESMVEY | QHYWRLPLT | nd / nd / nd / nd / nd / nd | nd | 0/18 |
| 11 | FITGNYYDKYQASNSIA | DEAHIMA | QQYDLLPLS | nd / nd / nd / nd / nd / nd | nd | 0/18 |
| 12 | SMYPFDVAIGKGTQNVA | HVSVRAL | QQYDRLPLV | 1.12 / 1.24 / 1.17 / 0.54 / 1.25 / 0.85 | 1.03 | 0/18 |
| 13 | NLQLQPRDGAQAQSSIA | DVSEADM | QQYARLPLH | 2.19 / 2.42 / 1.83 / 2.04 / 2.07 / 2.56 | 2.19 | 2/18 (2.89) |
| 14 | NVDISQNTNYNHKANVA | GHDERVG | QQYSRLPLS | 0.13 / -0.10 / -0.02 / -0.21 / -0.32 / 0.12 | -0.07 | 1/18 (3.02) |
| 15 | VFSGLFQGDEQSYNSIA | EASLSNT | QQYISLPLS | nd / nd / nd / nd / nd / nd | nd | 0/18 |
| 16 | QIFFNDFQYDIESQNIA | QASLREV | QQYARLPLV | 0.70 / 0.76 / 0.98 / 0.54 / 1.27 / 1.27 | 0.92 | 1/18 (1.72) |
| 17 | NFGQKMALYTGDRYSIA | DHTVRAD | QQYSRLPLT | 0.46 / 0.42 / 0.49 / 0.70 / 0.59 / 0.37 | 0.50 | 0/18 |
| 18 | VLAMSSYGKSRHDSNIA | GANMLSQ | QQYARLPFA | 0.56 / 0.86 / 0.75 / 0.76 / 1.09 / 0.97 | 0.83 | 1/18 (2.37) |
| 19 | KINGVLINFGEDWNAIA | EENLSNL | QQYFHLPLS | nd / nd / nd / nd / nd / nd | nd | 0/18 |
| 20 | MLTWGDDHTTGHQNSIA | HAHERNT | QQYAQLPLT | 1.35 / 0.73 / 0.72 / 0.51 / 0.83 / 1.03 | 0.86 | 2/18 (3.16) |
| 21 | KIDPYEAMAGKNKESIA | EYAVTLT | QQYARLPLS | nd / nd / 2.48 / nd / 2.67 / nd | 2.57 | 1/18 (1.92) |
| 22 | DFEQWTFSQNRDDNSIA | HADEVVR | QQYDRLPLT | 1.70 / 1.59 / 1.94 / 1.71 / 1.22 / 0.90 | 1.51 | 1/18 (1.92) |
| 23 | KMETHSQDNRLDWSAVA | EAQTIYQ | QQYARLPLS | 0.97 / 0.78 / 0.52 / 1.02 / 1.22 / 0.56 | 0.84 | 1/18 (1.93) |
| 24 | QFDMFEPYQGEQNASIA | GTTNRLT | QQYFKLPLS | 0.34 / 0.43 / 0.22 / 0.32 / 0.42 / 0.55 | 0.38 | 0/18 |
| 25 | KIEQVWEAFNGHYANVA | NAAEVPE | QQYERLPLA | 0.96 / 1.45 / 2.11 / 1.68 / 0.94 / 1.13 | 1.38 | 0/18 |
| 26 | RLDFQDLMWQYDANNIA | GATLSIE | QQYGRLPLT | nd / nd / nd / nd / nd / nd | nd | 0/18 |
| 27 | HFAVNLTSLASSKQNVA | NASTVMV | QYYNRLPLS | 1.46 / 2.01 / 1.43 / 1.57 / nd / 3.08 | 1.91 | 2/18 (2.66) |
| 28 | HVAMLLGQQHGKQANVA | EADELMT | QQYYHLPLA | nd / nd / nd / nd / nd / nd | nd | 0/18 |
| 29 | SLFEKEREELLVEDNIA | DGTEHMD | QQYFRLPLL | 0.52 / 0.53 / 1.09 / 2.10 / 0.86 / 1.12 | 1.04 | 0/18 |
| 30 | SLTSHEEEKEGAEASVA | EAVMLES | QQYHRLPLM | 1.06 / 1.40 / 1.02 / 2.40 / 1.18 / 2.17 | 1.54 | 0/18 |
| 31 | MIEIIPDGYMEMRSNVA | DGSLVRM | QQYARLPLM | nd / nd / nd / nd / nd / nd | nd | 0/18 |
| 32 | VLSDTIENWADEADNIA | DATETSK | QQYYRLPLS | 1.81 / 1.14 / 2.07 / 1.58 / 1.09 / 1.79 | 1.58 | 0/18 |
| 33 | KITLIFSNKGNSRHSVA | NAETLAH | QQYYMLPLM | nd / nd / 2.58 / 2.49 / 3.70 / 2.90 | 2.92 | 1/18 (1.76) |
| 34 | RFPEHLLMLESEIRNIA | NATKTME | QQYFRLPLV | 0.40 / 0.55 / 0.46 / 0.29 / 0.33 / 0.40 | 0.40 | 0/18 |
| 35 | QLSMWEQNGTRGYSSVA | DTDVRMA | QQYHRLPLS | 0.21 / 0.29 / 0.17 / -0.01 / 0.15 / 0.48 | 0.21 | 0/18 |
| 36 | NMTEQVFQGSRNKYNIA | AEVKRVY | QQYQRLPLM | nd / nd / nd / nd / 1.73 / 0.83 | 1.28 | 0/18 |
| 37 | SMTIDTEMEAKHQNSVA | EASHTEY | QQYSELPLT | 1.57 / 1.55 / 1.47 / 1.39 / 1.97 / 1.72 | 1.61 | 1/18 (3.37) |
| 38 | VMQMDNDRNNDITYAIA | DVTMREK | QQYNRLPLM | 0.90 / 1.35 / 0.79 / 0.59 / 0.74 / 1.25 | 0.93 | 1/18 (2.30) |
| 39 | KLSWTCTTDLNQMHSVA | ESEVAVD | QQYAHLPLT | 1.36 / 1.94 / nd / 1.12 / 1.61 / 1.34 | 1.47 | 1/18 (1.19) |
| 40 | NLVEMEGTNQTKIGNIA | SVDQRMS | QQYQRLPLI | 0.92 / 0.97 / 1.00 / 0.79 / 0.85 / 0.99 | 0.92 | 2/18 (3.26) |
| 41 | SLTSHEEEKKGAEASVA | EAVMLES | QQYHQLPLM | 1.12 / 1.79 / 1.29 / 2.03 / 2.29 / 1.62 | 1.69 | 0/18 |
| 42 | MFDQQTMNENDKNNAVA | EVNHLVN | QQYAQLPLI | 1.73 / 1.50 / 1.59 / 1.09 / 1.23 / 2.19 | 1.56 | 1/18 (2.84) |

From the list, the first 4 with no signal in any replicate:

| CDR-L1 | CDR-L2 | CDR-L3 | log10 Kd (nM) by replicate | mean, log10 nM | signal with controls |
|---|---|---|---|---|---|
| KLVGDMQEDKNPSENIA | EESSVSQ | QQYSRLPLE | nd / nd / nd / nd / nd / nd | nd | 0/18 |
| KFQQESNNMNDIQNSVA | DESMVEY | QHYWRLPLT | nd / nd / nd / nd / nd / nd | nd | 0/18 |
| FITGNYYDKYQASNSIA | DEAHIMA | QQYDLLPLS | nd / nd / nd / nd / nd / nd | nd | 0/18 |
| VFSGLFQGDEQSYNSIA | EASLSNT | QQYISLPLS | nd / nd / nd / nd / nd / nd | nd | 0/18 |

A sequence measured in both rounds can read differently, since the two assays cover different ranges.
Three control strains display no target. For all light chain designs, 4% of the pairings with them gave a signal, with a median of 2.64 and one signal in twenty below 1.59, so weak values seen in few replicates may be background. Also given: how often the same scFv was detected with the empty control strains, with their mean in brackets.
In the paper, a design with two or fewer of six values counts as a poor binder.